Values joined by “and” are separate entries in the source; they are usually repeats but may differ in a detail not shown here. Equal entries are not always repeated. The list shows a part of the results, in another mix than the full data.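 The test compound was applied at a single concentration to cells in 96-well plates for 48 hours, and percent growth was recorded.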 Some salts and complexes are drawn in separate pieces, as the source files them; their charges need not balance. Active and inactive are the calls of the source. How the source made its calls: active means growth percent below 10; inactive means the rest.

In PubChem BioAssay (NCI) one finds growth data, which are given here for 30 compounds.

This assay relates to NCI-H226 lung. Briefly: NCI-60 one-dose screen, 48 h (100 = growth as untreated, 0 = no growth, -100 = all killed). The settings on record: 10 µM.
For the compound `CCCOP(=S)(Cl)OCCC`, the growth was inactive: 110%. For `CN(C)CCS`, the growth was inactive: 95.1% and inactive: 102%. As to `O=C(O)C1(O)c2ccccc2-c2ccccc21`, the growth is inactive: 92.9% and inactive: 86%. As to `Nc1cccc(Cl)c1.O=[N+]([O-])c1cc([N+](=O)[O-])c(O)c([N+](=O)[O-])c1`, the growth is inactive: 97.9%. As to `OCCSCCO`, the growth is inactive: 108%. The figure for `Nc1cc([As](Cl)Cl)cc(N)c1O` is inactive: 112%. Turning to `O=[N+]([O-])N(CCN(CC(Br)([N+](=O)[O-])[N+](=O)[O-])[N+](=O)[O-])CC(Br)([N+](=O)[O-])[N+](=O)[O-]`, the growth is inactive: 97.2%. As for `O=C1N([N+](=O)[O-])CCN1[N+](=O)[O-]`, the growth is inactive: 101%. Turning to `CC[N+]([O-])(CC)Cc1ccccc1.O=[N+]([O-])c1cc([N+](=O)[O-])c(S(=O)(=O)O)c([N+](=O)[O-])c1`, the growth is inactive: 95%. The figure for `CP(=O)(OCCCl)N(CCCl)CCCl` (stereo not given) is inactive: 101%; for `CN(CCO)CCCl.O=[N+]([O-])c1cc([N+](=O)[O-])c(O)c([N+](=O)[O-])c1` it is inactive: 101%. For the compound `CCN(CC)CCOC(=O)C(O)(c1ccccc1)c1cc(C)c(C)c(C)c1C` (stereo not given), the growth is inactive: 99.1%. The figure for `CCN(CC)CCOC(=O)C(O)(c1ccccc1)c1cc(C)cc(C)c1C` (stereo not given) is inactive: 106%. On to `CCN(C)CC.O=[N+]([O-])c1cc([N+](=O)[O-])c(O)c([N+](=O)[O-])c1`, for which the growth is inactive: 100%. Consider `O=C(Cl)c1c([N+](=O)[O-])cc([N+](=O)[O-])cc1[N+](=O)[O-]`, for which the growth is inactive: 89.3%.

For the compound `COc1ccc(C(O)(C(=O)OCCN2CCCCC2)c2ccc(OC)cc2)cc1`, the growth was inactive: 98.1%. For `Cc1c([N+](=O)[O-])c(C)c([N+](=O)[O-])c(C)c1[N+](=O)[O-]`, the growth was inactive: 117%.

As to `O=C(OCCN1CCCCCCCC1)C(O)(c1ccccc1)c1ccccc1`, the growth is inactive: 107%. The figure for `CN/C(N)=N/[N+](=O)[O-]` is inactive: 94.8%. Take `CCOC(=O)Nc1c([N+](=O)[O-])cc([N+](=O)[O-])cc1[N+](=O)[O-]`: the growth was inactive: 107%. The figure for `O=[N+]([O-])c1cc([N+](=O)[O-])c(Nc2nnnn2CCO)c([N+](=O)[O-])c1` is inactive: 126%. For the compound `Cc1c([N+](=O)[O-])cc([N+](=O)[O-])c(Br)c1[N+](=O)[O-]`, the growth is inactive: 97.3%. Consider `CN1CCN(CCOC(=O)C(O)(c2ccccc2)c2ccccc2)CC1`, for which the growth was inactive: 95.8%. Turning to `O=[N+]([O-])c1cc([N+](=O)[O-])c(O)c([N+](=O)[O-])c1.c1ccc([I+]c2ccccc2)cc1`, the growth was inactive: 70.5%. For `Nc1cc([N+](=O)[O-])cc([N+](=O)[O-])c1O`, the growth is inactive: 108% and inactive: 98.3%. Take `CC(C)N1CCN(CCOC(=O)C(O)(c2ccccc2)c2ccccc2)CC1`: the growth is inactive: 97.2%. The figure for `CC(C)N(CCCl)C(C)C` is inactive: 105%; for `O=[N+]([O-])OCCOc1ccc([N+](=O)[O-])cc1[N+](=O)[O-]` it is inactive: 99.8%; for `O=[N+]([O-])N(CCOC(N(F)F)(N(F)F)N(F)F)CC([N+](=O)[O-])([N+](=O)[O-])[N+](=O)[O-]` it is inactive: 102%. Turning to `NN/C(N)=N/[N+](=O)[O-]`, the growth is inactive: 100%.
